The results in this text go back to patent publication EP4831167A1, “AROMATIC HETEROCYCLIC COMPOUND, AND PREPARATION METHOD THEREFOR AND USE THEREOF” (dated 2026).

Amino acid sequences for entries named in this document (tags omitted). Residues count along the entry.
UniProt P15538, 25-503 limits assumed: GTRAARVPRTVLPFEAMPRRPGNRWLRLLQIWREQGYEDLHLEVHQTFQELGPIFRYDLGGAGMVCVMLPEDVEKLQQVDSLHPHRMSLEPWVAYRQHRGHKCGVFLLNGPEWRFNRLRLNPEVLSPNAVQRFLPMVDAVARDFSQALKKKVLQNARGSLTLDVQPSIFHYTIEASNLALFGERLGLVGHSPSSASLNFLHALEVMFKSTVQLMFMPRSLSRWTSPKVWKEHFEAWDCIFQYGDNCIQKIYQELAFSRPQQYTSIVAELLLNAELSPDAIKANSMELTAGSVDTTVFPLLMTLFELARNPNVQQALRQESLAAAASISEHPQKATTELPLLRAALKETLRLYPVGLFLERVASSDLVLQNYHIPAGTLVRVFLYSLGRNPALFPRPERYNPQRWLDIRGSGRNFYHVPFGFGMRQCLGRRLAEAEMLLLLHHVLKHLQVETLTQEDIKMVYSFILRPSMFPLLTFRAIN
UniProt P19099, 25-503 limits assumed: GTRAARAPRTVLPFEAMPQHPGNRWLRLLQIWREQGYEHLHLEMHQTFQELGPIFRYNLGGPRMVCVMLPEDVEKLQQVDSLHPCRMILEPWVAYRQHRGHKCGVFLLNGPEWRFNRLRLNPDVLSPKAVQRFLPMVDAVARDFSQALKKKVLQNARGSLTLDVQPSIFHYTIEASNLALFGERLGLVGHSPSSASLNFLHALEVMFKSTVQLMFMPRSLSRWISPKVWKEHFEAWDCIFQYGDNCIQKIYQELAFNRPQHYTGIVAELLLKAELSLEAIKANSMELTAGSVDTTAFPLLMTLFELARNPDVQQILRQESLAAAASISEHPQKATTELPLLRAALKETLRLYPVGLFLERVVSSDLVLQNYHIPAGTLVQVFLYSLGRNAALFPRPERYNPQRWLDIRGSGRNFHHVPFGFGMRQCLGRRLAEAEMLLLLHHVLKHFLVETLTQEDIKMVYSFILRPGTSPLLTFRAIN

Where only a bound is given, the exact number is not on record here.

The IC50 is the concentration that gives 50% inhibition. Read a low IC50 as higher potency. As usually defined, the Cmax is the highest concentration seen after dosing. As a reminder, the Tmax is the time at which the peak concentration occurs.

Series [1] has as its target 11β-hydroxylase (CYP11B1) (Homo sapiens, UniProt P15538). Briefly: Assay of human CYP11B1 inhibition (selectivity CYP11B2/CYP11B1). The note with it: G402-derived stable cell lines overexpressing human CYP11B1 / CYP11B2; CYP11B1: substrate 11-deoxycortisol, cortisol by HTRF. The method, then: Experimental reagents and instruments: Cortisol kit (Cisbio, Cat#62ALDPEG); Envision plate reader (PerkinElmer)
Experimental principle and method: In humans, 11β-hydroxylase (CYP11B1) is the key enzyme responsible for the biosynthesis of cortisol. In this experiment, a G402-derived stable cell line overexpressing human CYP11B1 was established in vitro. The cells were incubated with using 11-deoxycortisol as the substrate, and the test compound was added simultaneously. After co-incubation, the supernatant was collected, and cortisol levels in the supernatant were then measured by HTRF assay, and the inhibitory effect of the compound on 11β-hydroxylase (CYP11B1) was calculated.
Experimental steps: 11-Deoxycortisol was added to the wells of a plate pre-seeded with the cells (10,000 cells/well) 24h prior to assay initiation. […] Finally, the fluorescence signal ratio at 665 nm/615 nm was measured using an Envision plate reader (PerkinElmer).
Experimental data processing method: Test data were processed and analysed using GraphPad Prism 5 software. First, the mean reaction signal values of the high-signal control wells and low-signal control wells were calculated separately. […] The inhibition rate-concentration curve was fitted using the "log(inhibitor) vs. response - Variable slope" method in the software, and the IC50 value of the compound was calculated.
On the technique in general: TR-FRET usually uses a lanthanide donor and a delayed reading to cut background.

For series [2], the target named is human aldosterone synthase (CYP11B2) (Homo sapiens, UniProt P19099). Briefly: Assay of human aldosterone synthase (CYP11B2) inhibition. To be noted: G402 cell line stably overexpressing human CYP11B2; substrate 11-deoxycorticosterone (11-DOC); 24 h incubation; aldosterone in supernatant by HTRF. The source says:
Experimental reagents and instruments: Aldosterone kit (Cisbio, Cat#64ALDPEG); Envision plate reader (PerkinElmer).
Experimental principle and method: In humans, aldosterone synthase (CYP11B2) catalyses the conversion of 11-deoxycorticosterone (11-DOC) to aldosterone through a series of metabolic processes. In this experiment, a G402 cell line stably overexpressing-Human CYP11B2 was established in vitro (according to Valentin-Goyco J, et al. Selectivity of osilodrostat as an inhibitor of human steroidogenic cytochromes P450. J Steroid Biochem Mol Biol. 2023, 231:106316). The cells were incubated with 11-deoxycorticosterone (11-DOC) as the substrate, the test compound was added simultaneously. After co-incubation, the supernatant was collected, and aldosterone levels in the supernatant were then measured by HTRF assay. The inhibitory effect of the compound on aldosterone synthase (CYP11B2) was calculated based on aldosterone concentration.
Experimental steps: 11-Deoxycorticosterone (11-DOC) was added to the wells of a plate pre-seeded with the cells (10,000 cells/well) 24h prior to assay initiation. […] Finally, the fluorescence signal ratio at 665 nm/615 nm was measured using an Envision plate reader (PerkinElmer).
Experimental data processing method: Test data were processed and analysed using GraphPad Prism 5 software. […]

Series [3] is described as follows: Concurrent pharmacokinetic study in cynomolgus monkeys (ACTH challenge model). The note with it: Oral: 1 mg/kg, single dose, ACTH i.m. 1 h after dosing, plasma. The method, then:
Experimental animals: healthy, adult male non-naive cynomolgus monkeys, aged 40-65 months.
Formulation preparation: 5% DMSO + 10% Solutol + 85% Saline (1/2/17, V/V/V). A pre-weighed quantity of the test compound was weighed and transferred to a centrifuge tube, followed by the addition of a predetermined volume of DMSO. The mixture was vortexed until a clear solution was obtained. Solutol was then added, followed by vortexing to mix thoroughly. Subsequently, physiological saline was incorporated, and the mixture was vortexed thoroughly to obtain a clear solution.
Animal model: After a 7-day acclimation period, animals received a single intramuscular injection of ACTH (ACTH challenge model). Plasma samples were collected before administration and 1 h post-injection for PD biomarker measurement.
Grouping and administration: • (1) administration route: oral (p.o.) administration; administration dose: 1 mg/kg; administration volume: 5 mL/kg; administration frequency: single dose on the day. • (2) ACTH injection method: intramuscular injection; injection time: 1 h after oral (p.o.) administration; dose: 14.5 ug/kg; injection volume: 0.1 ml/kg.
Sample collection and processing: Blood samples were collected before p.o. administration and at 15 min, 30 min, 1 h, 2 h, 4 h, 6 h, 8 h, and 24 h after p.o. administration. Approximately 0.3 mL of blood was collected from the limb veins into EDTA-K2 tubes, gently mixed by shaking, and placed in an ice-water bath. Plasma was separated by centrifugation at 2,000 × g for 10 minutes at 4°C within 30 minutes of collection. The plasma samples were stored in a refrigerator at -80°C until analysis, and the separated plasma was frozen in a refrigerator until further analysis. During sample processing, all operations were performed in an ice-water bath.
Data analysis method: Pharmacokinetic parameters after oral administration to cynomolgus monkeys were calculated using Phoenix WinNonlin software with a non-compartmental model. […]

Take `[2H]C([2H])([2H])N1C(=O)CCc2cc(-c3cncc(N4CCN(C([2H])([2H])C(=O)NC(C)C)CC4)c3)ccc21`: the “Ratio of CYP11B1 IC50 to CYP11B2 IC50” value in series [1] is reported as “B (500 ≥ B > 200)”. Besides, the 50% inhibitory concentration (IC50) in series [2] is < 3 nM. In addition, in series [3], the “AUClast” value was determined as 4848.33 ± 77.23 ng·h/mL, the “Cmax” value amounted to 1250 ± 98.99 ng/mL and the time to peak (Tmax) is 2.00 h.
